Earlier results, collected in patent US20180296561A1, “The Methods For Treatment Of Tumors” (The University of North Carolina at Chapel Hill, priority 2015, published 2018).

By UniProt entry, the sequences of proteins in these tests, tags left out. Residues count along the entry.
UniProt P36888, 27-993: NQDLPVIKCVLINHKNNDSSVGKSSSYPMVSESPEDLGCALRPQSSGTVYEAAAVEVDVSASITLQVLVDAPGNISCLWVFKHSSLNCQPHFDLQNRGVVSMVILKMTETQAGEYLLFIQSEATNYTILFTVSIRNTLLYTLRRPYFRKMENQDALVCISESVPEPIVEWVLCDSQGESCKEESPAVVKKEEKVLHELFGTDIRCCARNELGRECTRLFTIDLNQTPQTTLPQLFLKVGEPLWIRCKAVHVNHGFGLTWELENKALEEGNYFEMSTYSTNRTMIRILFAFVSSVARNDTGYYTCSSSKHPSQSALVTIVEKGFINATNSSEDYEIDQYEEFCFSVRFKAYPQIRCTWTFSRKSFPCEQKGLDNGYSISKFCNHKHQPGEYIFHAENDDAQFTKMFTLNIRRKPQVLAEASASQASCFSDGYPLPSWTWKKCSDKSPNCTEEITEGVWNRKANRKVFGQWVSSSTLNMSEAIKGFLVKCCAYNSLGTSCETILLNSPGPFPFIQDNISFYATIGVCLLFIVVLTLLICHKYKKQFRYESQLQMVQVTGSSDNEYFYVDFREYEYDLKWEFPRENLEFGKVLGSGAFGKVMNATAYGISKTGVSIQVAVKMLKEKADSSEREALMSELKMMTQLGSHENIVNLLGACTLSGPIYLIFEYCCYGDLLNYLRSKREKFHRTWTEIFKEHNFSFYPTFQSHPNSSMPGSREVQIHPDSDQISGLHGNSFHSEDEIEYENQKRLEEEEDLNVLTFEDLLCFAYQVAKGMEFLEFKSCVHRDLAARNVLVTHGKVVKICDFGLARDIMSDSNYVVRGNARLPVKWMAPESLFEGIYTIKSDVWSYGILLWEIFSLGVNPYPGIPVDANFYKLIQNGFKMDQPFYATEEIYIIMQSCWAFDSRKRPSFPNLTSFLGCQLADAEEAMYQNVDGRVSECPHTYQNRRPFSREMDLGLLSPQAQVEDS

Biological target: FLT3 (Homo sapiens, UniProt P36888)
Settings: cited from earlier work

Question: For CCCCNc1ncc2c(-c3ccc(CN4CCN(C)CC4)cc3)cn(C3CCC(O)CC3)c2n1 (stereo not shown) [UNC2025A], which “inhibitory activity against FLT3” value is on record?
Answer: Its value is “dual inhibitory activity”.
